The entries are a selection whose mix differs from that of the whole data set. Calls of active or inactive are those of the source. No stated cut-off is given here; in the data, active means fold change permeability below about 0.7 or above about 1.3; inactive means in between.
Assay: compounds altering in vitro BBB leakiness – cell-based, FITC-avidin fluorescence, HTS, primary screen (AID 1963498); further: test concentration not given here
Conditions: brain endothelial barrier, actives lie on both sides

Question: For `CC(C)N1CCC(N(C(=O)Cc2ccccc2)c2ccc(Cl)cc2)CC1`, which fold change permeability is on record?
Answer: The fold change permeability was active: 1.9.

— PubChem BioAssay AID1963498 (Burek Lab, Department of Anaesthesiology, Intensive Care, …, 2024)
